According to PubChem BioAssay AID1259422 (The Scripps Research Institute Molecular Screening Center, 2018):
The entries are a selection whose mix differs from that of the whole data set. The source made the active and inactive calls. No stated cut-off is given here; in the data, active means inhibition above about 32%; inactive means the rest.

assay: TEAD-YAP interaction inhibition, primary screen, TEAD-YAP interaction inhibitor project, luminescence, HEK-TIYL cells (AID 1259422); settings: TEAD-Gal4/YAP UAS-luciferase luminescence, at 9.12 µM, stronger effect = higher value;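 further: 0% = median of test compound wells and 100% = reference inhibitor wells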

Question: With `COc1cc(OC)c(C(=O)NCC2(N(C)C)CCCCC2)cc1OC` as the compound, how does the inhibition read?
Answer: inactive: -4.9%

Question: Which inhibition does the source give for `Cc1ccc(C(=O)O)cc1N(CCCl)CCCl` here?
Answer: inactive: -1.68%

Question: For `COc1ccc(CN(CCCl)CCCl)cc1Cl`, which inhibition is on record?
Answer: inactive: 0.25%

Question: For `FC(F)(F)Oc1ccc(NC2CCNCC2)cc1`, which inhibition is on record?
Answer: inactive: -0.15%

Question: For `CCN1CCC(Nc2ccccc2F)CC1`, which inhibition is on record?
Answer: inactive: -3.84%

Question: For `CCCOc1ccc(C(=O)NCC2(N(C)C)CCCCC2)cc1OC`, which inhibition is on record?
Answer: inactive: -13.8%

Question: For `Cc1cc(C(=O)NCC2(N3CCOCC3)CCCCC2)c2ccccc2n1`, which inhibition is on record?
Answer: inactive: 7.62%

Question: Which inhibition does the source give for `CN1CCC(Nc2cccc(F)c2)CC1` here?
Answer: inactive: -1.65%

Question: For `COc1cccc(OC)c1CN1CCC(Nc2ccccc2)CC1`, which inhibition is on record?
Answer: inactive: 1.9%

Question: Which inhibition does the source give for `O=C(NCC1(N2CCCCC2)CCCCC1)c1cncc(Br)c1` here?
Answer: inactive: -1.84%

Question: Which inhibition does the source give for `CCN1CCC(Nc2ccc(Cl)cc2)CC1` here?
Answer: inactive: -0.42%

Question: With `COc1ccc(CCN2CCC(N(Cc3ccco3)C(C)=O)CC2)cc1` as the compound, how does the inhibition read?
Answer: inactive: 2.87%

Question: For `COc1ccc(NC2CCN(CCc3cccs3)CC2)cc1`, which inhibition is on record?
Answer: inactive: -4.64%

Question: With `O=C(NCC1(N2CCCCC2)CCCCC1)c1cccc([N+](=O)[O-])c1` as the compound, how does the inhibition read?
Answer: inactive: 7.45%

Question: With `O=C(NCC1(N2CCOCC2)CCCCC1)c1cc(=O)[nH]c2ccccc12` as the compound, how does the inhibition read?
Answer: inactive: 0.41%

Question: Which inhibition does the source give for `CN1CCN(CCOC(=O)C(O)(c2ccccc2)c2ccccc2)CC1` here?
Answer: inactive: -4.8%

Question: For `COc1ccccc1/C=C/CN1CCN(C(C)=O)CC1`, which inhibition is on record?
Answer: inactive: -3.98%

Question: With `CN(C)P(=O)(OC(C)(C)C(Cl)(Cl)Cl)SCCCCl` (centres undefined) as the compound, how does the inhibition read?
Answer: inactive: 10.9%

Question: For `COc1ccc(NC2CCN(CCc3ccccn3)CC2)cc1`, which inhibition is on record?
Answer: inactive: -6.34%

Question: With `CCOC(=O)N1CCC(Nc2ccc(F)cc2)CC1` as the compound, how does the inhibition read?
Answer: inactive: 1.59%

Question: Which inhibition does the source give for `CCCN1CCC(Nc2ccc(F)cc2)CC1` here?
Answer: inactive: -4.36%

Question: For `O=C1CCN(Cc2ccccc2)CC1`, which inhibition is on record?
Answer: inactive: 1.06%

Question: Which inhibition does the source give for `CC(=O)N1CCc2ccc(N(C(=O)C(C)(C)C)C3CCN(Cc4ccccc4)CC3)cc21` here?
Answer: inactive: -2.56%

Question: With `COc1cccc(CN(CCCl)CCCl)c1` as the compound, how does the inhibition read?
Answer: inactive: 10.4%

Question: With `CCOC(=O)N1CCC(Nc2cccc(C)c2)CC1` as the compound, how does the inhibition read?
Answer: inactive: 8.73%

Question: For `COc1ccc(C(=O)NCC2(N3CCCCC3)CCCCC2)cc1`, which inhibition is on record?
Answer: inactive: -13.8%

Question: Which inhibition does the source give for `COc1ccc(C(=O)NCC2(N3CCCCC3)CCCCC2)c(OC)c1OC` here?
Answer: inactive: 1.74%

Question: Which inhibition does the source give for `CCCN1CCC(Nc2ccc(OC)c(OC)c2)CC1` here?
Answer: inactive: 1.73%

Question: For `N#CC1(Nc2ccccc2)CCN(Cc2ccccc2)CC1`, which inhibition is on record?
Answer: inactive: 4.61%

Question: Which inhibition does the source give for `CC1CN(CCc2ccccc2)CCC1=O` (centres undefined) here?
Answer: inactive: -3.58%

Question: With `CCOC(=O)N1CCC(Nc2ccc(OC)cc2)CC1` as the compound, how does the inhibition read?
Answer: inactive: 4.23%

Question: Which inhibition does the source give for `CN(CCOC(=O)C(O)(c1ccccc1)c1ccccc1)C(C)(C)C` here?
Answer: inactive: 15.5%

Question: Which inhibition does the source give for `O=C(O)C1(Nc2ccccc2)CCN(Cc2ccccc2)CC1` here?
Answer: inactive: 5.3%

Question: Which inhibition does the source give for `CCCOc1ccc(C(=O)NCC2(N(C)C)CCCCC2)cc1` here?
Answer: inactive: 4.02%

Question: Which inhibition does the source give for `CC(C)(C)OC(=O)N1CCC(Nc2ccc(F)cc2F)CC1` here?
Answer: inactive: -0.61%

Question: With `CN1CCC(Nc2ccc(F)c(Cl)c2)CC1` as the compound, how does the inhibition read?
Answer: inactive: -4.34%

Question: With `Fc1ccc(NC2CCN(Cc3ccccc3)CC2)cc1F` as the compound, how does the inhibition read?
Answer: inactive: 0.65%

Question: With `COc1ccc(NC2CCN(Cc3ccncc3)CC2)cc1` as the compound, how does the inhibition read?
Answer: inactive: 4.5%

Question: With `CN1CCC(Nc2ccc(Cl)cc2)CC1` as the compound, how does the inhibition read?
Answer: inactive: 3.13%

Question: For `CN(C)C1(CNC(=O)c2cc(=O)[nH]c3ccccc23)CCCCC1`, which inhibition is on record?
Answer: inactive: 3.88%

Question: For `COc1cc(OC)cc(C(=O)NCC2(N3CCOCC3)CCCCC2)c1`, which inhibition is on record?
Answer: inactive: 4.89%

Question: Which inhibition does the source give for `CCC(CO)(C(=O)OC1CN2CCC1CC2)c1ccccc1` (centres undefined) here?
Answer: inactive: -0.6%

Question: For `Clc1ccc(NC2CCN(Cc3ccccc3)CC2)cc1`, which inhibition is on record?
Answer: inactive: 8.56%

Question: With `Fc1cccc(NC2CCN(CCc3ccccc3)CC2)c1` as the compound, how does the inhibition read?
Answer: inactive: 3%

Question: For `CCCN1CCC(Nc2ccc(Cl)cc2)CC1`, which inhibition is on record?
Answer: inactive: -10.3%

Question: Which inhibition does the source give for `CN(C)C1(CNC(=O)c2cc3c(s2)CCC3)CCCCC1` here?
Answer: inactive: -3.43%

Question: Which inhibition does the source give for `CN1CCC(Nc2ccccc2Cl)CC1` here?
Answer: inactive: -3.56%

Question: Which inhibition does the source give for `CC1CN(Cc2ccccc2)CCC1=O` (centres undefined) here?
Answer: inactive: 4.55%

Question: For `[C-]#N.[K+].c1ccc2c(c1)OCCOCCOc1ccccc1OCCOCCO2`, which inhibition is on record?
Answer: inactive: 4.63%

Question: For `CC(C)(C)OC(=O)N1CCC(Nc2ccc(Cl)cc2Cl)CC1`, which inhibition is on record?
Answer: inactive: 2.76%

Question: Which inhibition does the source give for `CN1CCC(Nc2ccccc2F)CC1` here?
Answer: inactive: 3.12%

Question: With `CCN1CCC(Nc2ccc(F)cc2)CC1` as the compound, how does the inhibition read?
Answer: inactive: 2.07%

Question: Which inhibition does the source give for `CCOP(=O)(OCC)SCC(=O)N(CC)CC` here?
Answer: inactive: 2.66%

Question: Which inhibition does the source give for `CC1CN(C)C(C)CC1Nc1ccccc1` (centres undefined) here?
Answer: inactive: 1.57%

Question: Which inhibition does the source give for `O=C(NCC1(N2CCCCC2)CCCCC1)c1ccc([N+](=O)[O-])s1` here?
Answer: inactive: -2.1%

Question: Which inhibition does the source give for `COc1cccc(OC)c1CN1CCC(=O)CC1` here?
Answer: inactive: -5.14%

Question: For `COc1ccc(CCN2CCC(Nc3ccc(OC)cc3)CC2)cc1`, which inhibition is on record?
Answer: inactive: 1.78%

Question: For `CC(=O)N1CCN(C/C=C/c2ccccc2[N+](=O)[O-])CC1`, which inhibition is on record?
Answer: inactive: 1.89%

Question: For `N#Cc1ccc(C(=O)NCC2(N3CCCCC3)CCCCC2)cc1`, which inhibition is on record?
Answer: inactive: -0.9%

Question: Which inhibition does the source give for `c1ccc(CN2CCC(Nc3ccccc3)CC2)cc1` here?
Answer: inactive: -1.24%

Question: Which inhibition does the source give for `CCCN1CCC(Nc2cc(OC)cc(OC)c2)CC1` here?
Answer: inactive: 0.86%

Question: For `NC(=O)C1(Nc2ccccc2)CCN(Cc2ccccc2)CC1`, which inhibition is on record?
Answer: inactive: -8.21%

Question: Which inhibition does the source give for `COc1ccc(C(=O)NCC2(N3CCOCC3)CCCCC2)cc1OC` here?
Answer: inactive: -0.7%

Question: For `COc1cc(C(=O)NCC2(N3CCOCC3)CCCCC2)cc(OC)c1C`, which inhibition is on record?
Answer: inactive: 0.23%

Question: With `CN1CCC(Nc2ccc(F)cc2)CC1` as the compound, how does the inhibition read?
Answer: inactive: 3.2%

Question: Which inhibition does the source give for `O=C1CCN(CCc2ccccc2)CC1` here?
Answer: inactive: 3.97%

Question: Which inhibition does the source give for `CCOC(=O)N1CCC(Nc2ccc(Cl)cc2)CC1` here?
Answer: inactive: 1.97%

Question: Which inhibition does the source give for `CCOC(=O)N1CCC(Nc2ccc(C)cc2)CC1` here?
Answer: inactive: 12.8%

Question: Which inhibition does the source give for `O=C(NCC1(N2CCOCC2)CCCCC1)c1ccc2c(c1)OCO2` here?
Answer: inactive: 3.57%
